The record followed here is patent publication US5154929A, “Percutaneous absorption type preparation and process for preparing the same” (Nitto Denko Corporation, priority 1988, dated 1992).

The nature of this data set: Saturated solubility of the drug in the pressure-sensitive adhesive. Particulars: adhesive of Example 1 (2-ethylhexyl acrylate 97 parts, acrylic acid 3 parts).

Turning to `O=[N+]([O-])O[C@H]1CO[C@H]2[C@@H]1OC[C@H]2O[N+](=O)[O-]`, the “saturated solubility in the pressure-sensitive adhesive” value is given as “about 8 % by weight”.
